Assay results published in ChEMBL document CHEMBL4002583, “Amino derivatives of platanic acid act as selective and potent inhibitors of butyrylcholinesterase” (Eur J Med Chem, 2017).

Assay: Selectivity ratio of Ki for equine serum BChE to Ki for electric eel AChE

| SMILES | Ratio Ki |
| --- | --- |
| COC(=O)[C@]12CC[C@@H](/C(C)=N/O)[C@@H]1[C@H]1CC[C@@H]3[C@@]4(C)CC[C@H](OC(C)=O)C(C)(C)[C@@H]4CC[C@@]3(C)[C@]1(C)CC2 | > 1.4 |
| COC(=O)[C@]12CC[C@@H](/C(C)=N\O)[C@@H]1[C@H]1CC[C@@H]3[C@@]4(C)CC[C@H](OC(C)=O)C(C)(C)[C@@H]4CC[C@@]3(C)[C@]1(C)CC2 | > 6 |
| CC(=O)O[C@H]1CC[C@]2(C)[C@H]3CC[C@@H]4[C@H]5[C@H](/C(C)=N/O)CC[C@]5(C(=O)O)CC[C@@]4(C)[C@]3(C)CC[C@H]2C1(C)C | > 2.4 |
